These are literature values, as cited in patent US20050255156A1, “Reverse-micellar delivery system for controlled transportation and enhanced absorption of agents” (priority 2001, published 2005).

For this data set the following is noted: dog, ileocolonic, 10 units/kg, mixed micelles of sodium glycocholate (30 mM) and linoleic acid (40 mM).

Consider insulin, for which the Bioavailability was 1.4%.
